Structures can show the parent of a compound that is named as a salt. ± gives the uncertainty stated by the source. The list shows a part of the results, in another mix than the full data.
System: THP-1
Assay: CD86 surface expression induction over DMSO control (% over DMSO); higher = stronger dendritic cell activation
Conditions: exposure time: 24 h
Method: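 hCLAT-like CD54 and CD86 surface expression on THP1 cells after 24 h exposure at a single concentration (highest non-cytotoxic concentration, or 100-200 µM if not cytotoxic). Flow cytometry (iQue) was run on 5,000 live cells.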

Structure (SMILES)	CD86 surface expression induction
CN1CCCN=C1/C=C/c1cccs1 [Pyrantel tartrate] (100 µM)	-4.75 ± 3.9
NNc1nncc2ccccc12 [Hydralazine hydrochloride] (10 µM)	0.65 ± 8.2
Oc1ccc(O)cc1 [Hydroquinone] (10 µM)	4.97 ± 0.63
CCOC(=O)N1CCC(=C2c3ccc(Cl)cc3CCc3cccnc32)CC1 [Loratadine] (100 µM)	18.2 ± 33
C=CC(=O)OCCOc1ccccc1 [2-Phenoxyethyl acrylate] (100 µM)	0.03 ± 5.7
Cn1c(=O)c2c(ncn2C)n(C)c1=O [Caffeine] (100 µM)	0.53 ± 3.9

— the supplement of paper PMC10933113
